Assay results: patent US20080288176A1 (priority 2005, published 2008)

Key:
[1] = system: cardiac tissue prostacyclin (PGI2) to thromboxane A2 (TXB2) ratio; test: Cardiac tissue prostacyclin to thromboxane ratio; type: in vivo, rat; settings: male Wistar rats
Description: (§1) Myocardial infarction and ischemic events in high risk patients led one of the most popular COX-2 inhibitors to its demise (Bresalier et al., 2005). Non-selective NSAIDS may also cause similar problems due to their ability to inhibit COX-2. It has been postulated that a shift in the ratio of PGI2 to thromboxane A2 during NSAID treatment would provide early indications of atherogenicity (Krötz et al., 2005). Adenosine diphosphate (ADP) generation is an indicator of myocardial infarction which has no connection with the arachidonic acid cascade (Borna et al., 2005). […] Long term NSAID use has been linked to kidney damage and hypertension (Zafirovska et al., 1993). […] This was associated with an increase in the urine the ratio of alanine-amino-peptidase (AAP) and creatinine.
(§2) Table 1 is a summary of the protocol for a study which was conducted in male Wistar rats weighing 275-300 grams. The animals were allowed to acclimatize for at least five days prior to the commencement of the study. The study protocol was approved by the local animal ethics committee.
All rats were euthanized by removal of the heart 6 hours after initial dosing, following final blood collections. Immediately after terminal blood collections were complete, the thorax was opened and the heart removed. The heart was cut in half longitudinally. Half of the heart was placed in formalin for histological examination. […]

male Wistar rats = test: Urine alanine aminopeptidase to creatinine ratio (proximal tubular kidney damage); type: in vivo, rat
Description: as §1, §2
All test animals, housed in metabolic cages, had urine collected over wet ice for 6 hours after dosing. Aliquots of the urine from each animal were collected to determine creatinine concentration. The remainder of the urine was centrifuged at 1000 g for 10 minutes. […]

COc1ccc2cc([C@H](C)C(=O)O)ccc2c1 [NAP, naproxen]
PGI2/TXA2 ratio comparison (in words) [1]: insignificant change
Urine AAP/creatinine ratio change (in words) (male Wistar rats): no significant increase
